The target of experiment [1] is ΔF508 CFTR (Homo sapiens (Human)) (UniProt P13569). Nature of the experiment: CFTR co-IP, MudPIT MS; ΔF508.
The target of experiment [2] is wild-type cystic fibrosis transmembrane conductance regulator (CFTR) (Homo sapiens (Human)) (UniProt P13569). Kind of experiment: CFTR co-IP, MudPIT MS; BHK wt, Calu-3, HT29, T84.

Protein sequences, listed by entry. Tags and fused reporters are not part of them. Lines headed by an entry give the natural chain unless they say otherwise; changes in a name come on top.
UniProt P13569, whole entry: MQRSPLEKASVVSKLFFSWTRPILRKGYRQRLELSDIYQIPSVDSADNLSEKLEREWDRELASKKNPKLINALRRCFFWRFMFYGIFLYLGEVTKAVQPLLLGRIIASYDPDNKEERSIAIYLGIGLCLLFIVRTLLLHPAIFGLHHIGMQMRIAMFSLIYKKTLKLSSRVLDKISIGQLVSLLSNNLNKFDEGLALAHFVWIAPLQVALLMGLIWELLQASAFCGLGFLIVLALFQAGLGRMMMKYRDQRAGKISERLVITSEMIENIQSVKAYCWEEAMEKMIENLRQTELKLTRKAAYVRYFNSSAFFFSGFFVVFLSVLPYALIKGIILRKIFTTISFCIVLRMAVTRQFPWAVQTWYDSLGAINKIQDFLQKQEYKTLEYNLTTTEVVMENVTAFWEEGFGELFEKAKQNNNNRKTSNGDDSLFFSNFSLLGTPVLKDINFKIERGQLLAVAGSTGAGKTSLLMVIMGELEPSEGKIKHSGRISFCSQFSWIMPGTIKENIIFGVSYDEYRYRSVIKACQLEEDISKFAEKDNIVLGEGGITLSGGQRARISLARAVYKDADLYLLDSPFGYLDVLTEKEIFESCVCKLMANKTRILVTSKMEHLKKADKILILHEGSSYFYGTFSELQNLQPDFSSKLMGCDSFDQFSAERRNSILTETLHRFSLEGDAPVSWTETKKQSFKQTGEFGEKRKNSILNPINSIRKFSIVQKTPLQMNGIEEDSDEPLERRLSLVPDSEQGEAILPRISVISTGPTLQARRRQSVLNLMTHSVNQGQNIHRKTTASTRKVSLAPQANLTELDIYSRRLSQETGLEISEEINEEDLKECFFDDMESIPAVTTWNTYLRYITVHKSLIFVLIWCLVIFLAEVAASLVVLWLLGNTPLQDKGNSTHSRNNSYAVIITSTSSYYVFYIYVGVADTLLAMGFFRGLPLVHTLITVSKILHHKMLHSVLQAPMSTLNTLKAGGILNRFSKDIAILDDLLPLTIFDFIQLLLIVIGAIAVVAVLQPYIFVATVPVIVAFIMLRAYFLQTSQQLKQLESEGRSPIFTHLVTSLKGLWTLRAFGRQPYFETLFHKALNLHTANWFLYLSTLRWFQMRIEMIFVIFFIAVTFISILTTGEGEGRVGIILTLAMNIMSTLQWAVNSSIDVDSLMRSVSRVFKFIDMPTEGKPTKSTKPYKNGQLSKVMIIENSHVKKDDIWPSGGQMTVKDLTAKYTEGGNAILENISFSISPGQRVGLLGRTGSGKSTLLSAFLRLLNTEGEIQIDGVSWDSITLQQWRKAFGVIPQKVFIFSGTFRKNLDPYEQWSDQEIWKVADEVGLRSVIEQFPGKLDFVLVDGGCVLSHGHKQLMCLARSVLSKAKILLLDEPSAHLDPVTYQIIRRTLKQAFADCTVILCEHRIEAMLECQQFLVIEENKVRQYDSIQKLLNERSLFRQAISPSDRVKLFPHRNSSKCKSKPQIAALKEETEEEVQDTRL

From patent US20080014191A1 come the findings set out here.

For ubiquitin B (from UniProt P0CG49 1-76), in experiment [1], the % sequence coverage came to 16%, the total peptide spectra came to 52 spectra and the unique peptide spectra was 5 spectra. In experiment [2], this substance showed a % sequence coverage of 12%, a total peptide spectra of 16 spectra and a unique peptide spectra of 3 spectra.
In experiment [1], ubiquitin C (from UniProt Q63429 1-76) yielded a % sequence coverage of 6%, a total peptide spectra of 117 spectra and a unique peptide spectra of 5 spectra. For the same substance, in experiment [2], the % sequence coverage worked out at 5%, the total peptide spectra was found to be 36 spectra and the unique peptide spectra was 3 spectra.
